## Apparent affinities of Ab-14 variants for a coronavirus HR2 peptide

Binding partner: SARS-CoV-2 spike HR2 peptide, sequence PDVDLGDISGINAS.

Ab-14 is the parent antibody, in scFv form: VH, then three GGGGS repeats, then VL. The light chain is unchanged in all variants.
VH: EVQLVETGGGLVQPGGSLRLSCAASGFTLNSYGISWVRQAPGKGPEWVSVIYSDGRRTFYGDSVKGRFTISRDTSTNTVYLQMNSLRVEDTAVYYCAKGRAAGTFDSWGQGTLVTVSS
VL: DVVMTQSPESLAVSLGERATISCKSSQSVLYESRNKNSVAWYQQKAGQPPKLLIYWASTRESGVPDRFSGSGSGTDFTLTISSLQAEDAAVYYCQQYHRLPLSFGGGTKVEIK

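The starting antibody came from a phage panning campaign against this peptide. These sequences belong to a second round, designed from the earlier measurements on random variants of the parent. Several design methods are mixed in this list. Affinity was read by AlphaSeq, a pooled yeast mating assay with surface-displayed partners. After mating in shaken culture at 30 °C for 16 h, diploids were selected and their barcode pairs sequenced. A regression on co-assayed BCL2-family reference pairs converts the normalised counts of each replicate to an apparent Kd. The assay was run in six technical replicates.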

The parent's heavy chain CDRs are GFTLNSYGIS, VIYSDGRRTFYGDSVK, GRAAGTFDS; each variant's own CDRs replace them letter for letter.
Variants here have more than six changes.
Numbers give log10(Kd / nM), so 0 is 1 nM and 3 is 1 µM. Smaller is tighter.
A mean of the replicates is given; it leaves out those without a signal.
"nd" marks a missing value. The strain was present, yet no cells mated with the target were sequenced in any replicate, which points to weak or no binding.
In the paper, a design with two or fewer of six values counts as a poor binder.
The range of this assay differs from that of the first round, and the authors advise against merging the two.
Empty control strains, which show no peptide, gave a signal in 1% of pairings with all heavy chain designs; the median was 2.08 and 95% of these signals were weaker than 0.84. No background was subtracted.

The variant GFDLDEYGIS | VIYADGKRTAYADSVK | GTNAGTFDT gave -0.20 (6 of 6 replicates).
The variant GFDLNEYGIS | VIYADGVRTFYSDSVK | GNVAGTFDV gave -0.60 (6 of 6 replicates).
The variant GFGLDEYGIS | VIYADGNRQMYTDNVK | GNNLMLVSV gave nd (0 of 6 replicates).
The variant GFDLDEYGIS | VIYADGKRTAYADSVK | GQVAGTFDL gave 0.05 (6 of 6 replicates).
The variant GFDLDEYGIS | VIYADGMRTFYTDSVK | GNVAGTFDL gave -1.35 (6 of 6 replicates).
The variant GKSLDEYGIS | VIYADGMRTMYADKFK | GKLTAGSTL gave nd (0 of 6 replicates).
The variant GFDLDEYGIS | VIYADGVRKAYADSVK | GNVAGTFDI gave -0.40 (6 of 6 replicates).
The variant GFDLDEYGIS | VIYADGMRTFYADSVK | GNIAGTFLT gave -0.15 (6 of 6 replicates).
The variant GFDLNEYGIS | VIYADGRRTFYADSVK | GEIAGTFDK gave nd (0 of 6 replicates).
The variant GFDLNEYGIS | VIYADGRRTFYADSVK | GQTAGTFDE gave 0.18 (6 of 6 replicates).
The variant GFSLSSYGIS | VIYSDGRRTFYSDSEK | GRATGLFDG gave nd (0 of 6 replicates).
The variant GDSLEEYGIS | VIYADGSRTSYQESVK | GLYAGMLDV gave nd (0 of 6 replicates).
The variant GFDLDEYGIS | VIYADGMRTAYADSVK | GETAGTFDT gave 0.12 (6 of 6 replicates).
The variant GFDLNEYGIS | VIYADGRRTYYADSVK | GNEAGTFDM gave -0.55 (6 of 6 replicates).
The variant GFDLNEYGIS | VIYADGRRTFYSDSVK | GEIAGFFDQ gave -0.77 (6 of 6 replicates).
The variant GFQLDEYGIS | VIYADGMRTAYADSFK | GNKSVIIGI gave nd (0 of 6 replicates).
The variant GFDLDEYGIS | VIYADGMRTAYSDKVK | GNNAGTFDV gave -0.35 (6 of 6 replicates).
The variant GFDLDEYGIS | VIYADGMRTAYADNVK | GNVAGTFDQ gave -0.81 (6 of 6 replicates).
The variant GFDLDEYGIS | VIYADGKRTAYADSVK | GNTAGTFDI gave -0.72 (6 of 6 replicates).
The variant GFDLNEYGIS | VIYADGSRTAYADSVK | GEVAGTFDV gave 0.16 (6 of 6 replicates).
The variant GFDLDEYGIS | VIYADGQRKAYADSVK | GNVAGTFDI gave -0.68 (6 of 6 replicates).
The variant GFDLNEYGIS | VIYADGIRTFYADSVK | GNIAGTFDV gave -0.50 (6 of 6 replicates).
The variant GKNIDEYGVS | VIYADGKRTAYANNFK | GSNAGSFVS gave nd (0 of 6 replicates).
The variant GFDINEYGIS | VIYADGIRTSYANKFK | GDSGGIINF gave nd (0 of 6 replicates).
The variant GFDLDEQGIS | VIYADGVRCSYADKVK | GAGSGVIDV gave nd (0 of 6 replicates).
The variant GFDLNEYGIS | VIYADGMRTAYADSVK | GENAGTFDL gave -0.47 (6 of 6 replicates).
The variant GFDLDEYGIS | VIYADGRRTAYTDSVK | GETAGTFDV gave -0.15 (6 of 6 replicates).
The variant GFNLAEYGIS | VIYADGRRVYYADAVK | GKNGENFSF gave nd (0 of 6 replicates).
The variant GFDLNEYGIS | VIYADGRRTAYSDSVK | GQNAGTFDM gave -0.34 (6 of 6 replicates).
The variant GYDIEEYGIS | VIYADGKKNAFANSFK | GEWAGTFDD gave nd (0 of 6 replicates).
The variant GFDLNEYGIS | VIYADGQRTAYADSVK | GNNAGTFDQ gave 0.12 (6 of 6 replicates).
The variant GFTLDEYGIS | VIYADGRRTAYADSVK | GNVAGTFDQ gave -0.35 (6 of 6 replicates).
The variant GFDLNEYGIS | VIYADGRRTAYVDSVK | GENAGTFDI gave -0.04 (6 of 6 replicates).
The variant GFTCNEEGIS | VIYSDGRRRKYGDSVK | GRAAVTFDQ gave nd (0 of 6 replicates).
The variant GFDLDEYGIS | VIYADGKRTFYTDSVK | GNVAGTFDV gave -0.46 (6 of 6 replicates).
The variant GFDLNEYGIS | VIYADGKRTFYADSVK | GTNAGTFDQ gave -0.36 (6 of 6 replicates).
The variant GFDLESYGIS | VIYADGSRTAYADSVK | GNVAGTFVS gave -0.05 (6 of 6 replicates).
The variant GFDLNEYGIS | VIYADGRRTFYADSVK | GEFAGTFDQ gave 0.59 (6 of 6 replicates).
The variant GFDLNEYGIS | VIYADGMRKRYAQNFK | GYNSSDLTV gave nd (0 of 6 replicates).
The variant GFDLNEYGIS | VIYADGMRTAYADAVK | GENAGTFDV gave -0.30 (6 of 6 replicates).
The variant GFDLNEYGVS | VIYADGSRSAYTSSVK | GVGNLDIMI gave nd (0 of 6 replicates).
The variant GFDLNEYGIS | VIYADGQRTAYAESVK | GNVAGTFDV gave -0.66 (6 of 6 replicates).
The variant GFQLNEYGIS | VIYADGTRTAYADSVK | GAYDLVAVL gave 1.67 (1 of 6 replicates).
The variant GFDLNEYGIS | VIYADGRRTFYTDSVK | GELAGTFDV gave -0.57 (6 of 6 replicates).
The variant GFDLNEYGIS | VIYADGRRTFYSDSVK | GKVAGTFDV gave 0.01 (6 of 6 replicates).

Excerpt, the first 5 entries:

CDR-H1	CDR-H2	CDR-H3	mean, log10 nM	detected
GFDLDEYGIS	VIYADGKRTAYADSVK	GTNAGTFDT	-0.20	6 of 6
GFDLNEYGIS	VIYADGVRTFYSDSVK	GNVAGTFDV	-0.60	6 of 6
GFGLDEYGIS	VIYADGNRQMYTDNVK	GNNLMLVSV	nd	0 of 6
GFDLDEYGIS	VIYADGKRTAYADSVK	GQVAGTFDL	0.05	6 of 6
GFDLDEYGIS	VIYADGMRTFYTDSVK	GNVAGTFDL	-1.35	6 of 6

Data: MIT Lincoln Laboratory AlphaSeq set, Li et al. 2023, doi:10.1038/s41467-023-39022-2, as distributed in FLAb.